Experimental data reported in PMC11089506 (Journal of Medicinal Chemistry, 2024).

Protein sequences, listed by entry. Tags and fused reporters are not part of them. Residues count along the entry.
UniProt P28335, 33-458: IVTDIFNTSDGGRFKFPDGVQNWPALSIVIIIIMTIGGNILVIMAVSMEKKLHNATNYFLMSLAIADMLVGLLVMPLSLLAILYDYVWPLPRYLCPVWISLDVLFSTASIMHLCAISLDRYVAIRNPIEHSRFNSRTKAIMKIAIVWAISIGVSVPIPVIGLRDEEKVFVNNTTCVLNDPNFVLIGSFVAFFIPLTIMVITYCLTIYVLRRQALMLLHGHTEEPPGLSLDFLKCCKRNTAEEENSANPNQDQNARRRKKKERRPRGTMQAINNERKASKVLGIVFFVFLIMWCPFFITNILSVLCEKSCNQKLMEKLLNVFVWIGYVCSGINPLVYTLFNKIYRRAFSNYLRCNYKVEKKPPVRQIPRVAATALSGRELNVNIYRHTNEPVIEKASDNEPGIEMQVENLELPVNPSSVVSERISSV
UniProt P28223, whole entry: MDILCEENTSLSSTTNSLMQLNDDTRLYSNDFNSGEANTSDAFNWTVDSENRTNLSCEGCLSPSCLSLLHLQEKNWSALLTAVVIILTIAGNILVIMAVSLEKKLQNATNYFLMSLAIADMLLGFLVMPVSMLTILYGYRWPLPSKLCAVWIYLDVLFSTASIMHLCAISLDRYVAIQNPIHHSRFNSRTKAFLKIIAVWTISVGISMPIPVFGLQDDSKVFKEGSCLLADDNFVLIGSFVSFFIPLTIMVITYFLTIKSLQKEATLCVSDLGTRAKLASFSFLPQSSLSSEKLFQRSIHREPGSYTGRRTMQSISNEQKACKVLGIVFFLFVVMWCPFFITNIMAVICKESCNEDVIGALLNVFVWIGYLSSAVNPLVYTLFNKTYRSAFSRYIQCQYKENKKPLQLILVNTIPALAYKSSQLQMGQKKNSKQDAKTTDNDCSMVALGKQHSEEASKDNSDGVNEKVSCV

Assays:
human 5-HT2CR = human 5-HT2CR (Homo sapiens, UniProt P28335); assay: Ca2+/Fluo-4 assay, agonist mode, stable 5-HT2CR-HEK293 cells; conditions: for 5-HT2CR Rmax (%): % of the 5-HT Rmax; for 5-HT2CR Rmax ± S.E.M.: Table S2, % of the 5-HT Rmax on the same 96-well plate
human 5-HT2AR = human 5-HT2AR (Homo sapiens, UniProt P28223); assay: Ca2+/Fluo-4 assay, agonist mode, stable 5-HT2AR-HEK293 cells; conditions: for 5-HT2AR Rmax (%): Table 1, % of the 5-HT Rmax; for 5-HT2AR Rmax ± S.E.M.: Table S2, % of the 5-HT Rmax on the same 96-well plate; for fold drop in agonist potency (fold higher EC50) at 5-HT2AR: relative to (S)-11; for fold higher agonist potency at 5-HT2AR than at 5-HT2CR (selectivity): 5-HT2AR vs 5-HT2CR

| SMILES | 5-HT2CR Rmax ± S.E.M. (human 5-HT2CR) | 5-HT2AR Rmax (%) (human 5-HT2AR) | 5-HT2AR Rmax ± S.E.M. (human 5-HT2AR) | 5-HT2CR Rmax (%) (human 5-HT2CR; Table 1) | also measured |
| --- | --- | --- | --- | --- | --- |
| COc1cc(C(F)(F)F)ccc1C1CCCNC1.Cl (stereo not shown) [Compound 22dis, 3-(2-Methoxy-4-(trifluoromethyl)phenyl)piperidine Hydrochloride] | 38 ± 6% | – | – | – | 5-HT2CR Rmax (%) (human 5-HT2CR; Table 2): 38% |
| COc1cc(C2CCCNC2)c(OC)cc1Cl (stereo not shown) [Compound 8dis, 3-(4-Chloro-2,5-dimethoxyphenyl)piperidine] | 26 ± 2% | 61% | 61 ± 2% | 26% | – |
| COc1cc(C2CCCNC2)c(OC)cc1C#N (stereo not shown) [Compound 10eu, 2,5-Dimethoxy-4-(piperidin-3-yl)benzonitrile] | – | 25% | 25 ± 4% | – | – |
| COc1cc(C(F)(F)F)c(OC)cc1[C@@H]1CCCN(C)C1 [(S)-19, (S)-3-(2,5-Dimethoxy-4-(trifluoromethyl)phenyl)-1-methylpiperidine] | 14 ± 2% | – | – | – | 5-HT2CR Rmax (%) (human 5-HT2CR; Table 2): 14% |
| COc1cc(C2CCCNC2)c(OC)cc1SC(C)C (stereo not shown) [Compound 17dis, 3-(4-(Isopropylthio)-2,5-dimethoxyphenyl)piperidine] | – | 91% | 91 ± 4% | – | – |
| CCCCc1cc(OC)c(C2CCCNC2)cc1OC.Cl (stereo not shown) [Compound 14eu, 3-(4-Butyl-2,5-dimethoxyphenyl)piperidine Hydrochloride] | – | 82% | 82 ± 2% | – | – |
| COc1cc(C(F)(F)F)ccc1C1CCCNC1.Cl (stereo not shown) [Compound 22, 3-(2-Methoxy-4-(trifluoromethyl)phenyl)piperidine Hydrochloride] | – | – | – | – | fold drop in agonist potency (fold higher EC50) at 5-HT2AR (human 5-HT2AR): 20 fold |
| COc1cc(C2CCCNC2)c(OC)cc1Cl (stereo not shown) [Compound 8eu, 3-(4-Chloro-2,5-dimethoxyphenyl)piperidine] | – | 32% | 32 ± 6% | – | – |
| COc1cc(C2CCCNC2)c(OC)cc1C.Cl (stereo not shown) [Compound 12eu, 3-(2,5-Dimethoxy-4-methylphenyl)piperidine Hydrochloride] | – | 75% | 75 ± 3% | – | – |
| CCOc1cc(C(F)(F)F)c(OC)cc1C1CCCNC1.Cl (stereo not shown) [Compound 24eu, 3-(2-Ethoxy-5-methoxy-4-(trifluoromethyl)phenyl)piperidine Hydrochloride] | – | – | – | – | fold higher agonist potency at 5-HT2AR than at 5-HT2CR (selectivity) (human 5-HT2AR): 70 fold; fold drop in agonist potency (fold higher EC50) at 5-HT2AR (human 5-HT2AR): 10 fold |
| COc1cc(C2CCCNC2)c(OC)cc1C.Cl (stereo not shown) [Compound 12dis, 3-(2,5-Dimethoxy-4-methylphenyl)piperidine Hydrochloride] | 53 ± 6% | 89% | 89 ± 4% | 53% | – |
| COc1cc(C2CCCNC2)c(OC)cc1Br (stereo not shown) [Compound 6eu, 3-(4-Bromo-2,5-dimethoxyphenyl)piperidine] | – | 37% | 37 ± 4% | – | Rmax at 5-HT2AR (human 5-HT2AR): 37% |
| CCCCc1cc(OC)c(C2CCCNC2)cc1OC.Cl (stereo not shown) [Compound 14dis, 3-(4-Butyl-2,5-dimethoxyphenyl)piperidine Hydrochloride] | 68 ± 6% | 93% | 93 ± 5% | 68% | – |
| CCOc1cc(C(F)(F)F)c(OC)cc1C1CCCNC1.Cl (stereo not shown) [Compound 24dis, 3-(2-Ethoxy-5-methoxy-4-(trifluoromethyl)phenyl)piperidine Hydrochloride] | 34 ± 1% | – | – | – | – |
| COc1cc(C2CCCNC2)c(OC)cc1SC.Cl (stereo not shown) [Compound 15dis, 3-(2,5-Dimethoxy-4-(methylthio)phenyl)piperidine Hydrochloride] | 38 ± 5% | 85% | 85 ± 7% | 38% | – |
| COc1cc(C2CCCNC2)c(OC)cc1SC(C)C (stereo not shown) [Compound 17eu, 3-(4-(Isopropylthio)-2,5-dimethoxyphenyl)piperidine] | – | 92% | 92 ± 4% | – | – |
| COc1cc(C2CCCNC2)c(OC)cc1I (stereo not shown) [Compound 9eu, 3-(4-Iodo-2,5-dimethoxyphenyl)piperidine] | – | 53% | 53 ± 3% | – | – |
| CCc1cc(OC)c(C2CCCNC2)cc1OC.Cl (stereo not shown) [Compound 13eu, 3-(4-Ethyl-2,5-dimethoxyphenyl)piperidine Hydrochloride] | – | 75% | 75 ± 4% | – | – |
| COc1cc(C2CCCNC2)c(OC)cc1SC.Cl (stereo not shown) [Compound 15eu, 3-(2,5-Dimethoxy-4-(methylthio)phenyl)piperidine Hydrochloride] | 16 ± 2% | 84% | 84 ± 6% | 16% | – |
| COc1cc(C2CCCNC2)c(OC)cc1I (stereo not shown) [Compound 9dis, 3-(4-Iodo-2,5-dimethoxyphenyl)piperidine] | – | 58% | 58 ± 4% | – | – |
| CCSc1cc(OC)c(C2CCCNC2)cc1OC.Cl (stereo not shown) [Compound 16dis, 3-(2,5-Dimethoxy-4-(ethylthio)phenyl)piperidine Hydrochloride] | 52 ± 5% | – | – | 52% | – |
| CCOc1cc(C2CCCNC2)c(OC)cc1C(F)(F)F.Cl (stereo not shown) [Compound 25eu, 3-(5-Ethoxy-2-methoxy-4-(trifluoromethyl)phenyl)piperidine Hydrochloride] | 44 ± 5% | – | – | – | fold higher agonist potency at 5-HT2AR than at 5-HT2CR (selectivity) (human 5-HT2AR): 30 fold; fold drop in agonist potency (fold higher EC50) at 5-HT2AR (human 5-HT2AR): 3 fold; 5-HT2CR Rmax (%) (human 5-HT2CR; Table 2): 44% |
| COc1cc(C2CCCNC2)c(OC)cc1Br (stereo not shown) [Compound 6dis, 3-(4-Bromo-2,5-dimethoxyphenyl)piperidine] | 34 ± 4% | 67% | 67 ± 6% | 34% | – |
| CCc1cc(OC)c(C2CCCNC2)cc1OC.Cl (stereo not shown) [Compound 13dis, 3-(4-Ethyl-2,5-dimethoxyphenyl)piperidine Hydrochloride] | 44 ± 5% | 93% | 93 ± 5% | 44% | – |
| COc1cc(C2CCCNC2)c(OC)cc1C#N (stereo not shown) [Compound 10dis, 2,5-Dimethoxy-4-(piperidin-3-yl)benzonitrile] | 14 ± 1% | 41% | 41 ± 6% | 14% | – |
